The text below walks through data of patent US9309242B2, “Substituted pyrido[2,3-b]pyrazines as FGFR kinase inhibitors” (priority 2011, dated 2016).

Amino acid sequences for entries named in this document (tags omitted). Residues count along the entry.
UniProt P11362, whole entry: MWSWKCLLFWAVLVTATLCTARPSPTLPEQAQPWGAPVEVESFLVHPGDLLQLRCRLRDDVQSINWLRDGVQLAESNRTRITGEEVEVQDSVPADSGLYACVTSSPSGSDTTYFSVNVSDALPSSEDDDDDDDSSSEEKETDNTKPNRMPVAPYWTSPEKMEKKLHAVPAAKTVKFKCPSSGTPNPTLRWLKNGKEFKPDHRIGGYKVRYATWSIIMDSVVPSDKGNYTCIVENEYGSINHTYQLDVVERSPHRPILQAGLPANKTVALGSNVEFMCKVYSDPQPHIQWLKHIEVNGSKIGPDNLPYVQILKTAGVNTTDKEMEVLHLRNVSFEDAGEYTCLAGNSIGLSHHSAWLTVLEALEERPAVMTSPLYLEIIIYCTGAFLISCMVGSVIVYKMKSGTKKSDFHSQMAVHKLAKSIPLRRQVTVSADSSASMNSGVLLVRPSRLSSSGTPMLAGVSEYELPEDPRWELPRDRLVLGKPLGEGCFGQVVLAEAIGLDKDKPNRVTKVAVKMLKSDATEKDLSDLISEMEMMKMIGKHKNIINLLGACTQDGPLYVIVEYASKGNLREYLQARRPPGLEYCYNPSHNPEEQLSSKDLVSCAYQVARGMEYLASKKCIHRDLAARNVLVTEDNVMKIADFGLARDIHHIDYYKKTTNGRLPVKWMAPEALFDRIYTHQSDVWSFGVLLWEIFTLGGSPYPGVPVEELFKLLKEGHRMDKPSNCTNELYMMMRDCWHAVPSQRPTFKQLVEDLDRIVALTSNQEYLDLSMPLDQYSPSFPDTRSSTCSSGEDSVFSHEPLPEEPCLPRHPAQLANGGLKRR
UniProt P11362, 22-822 limits assumed: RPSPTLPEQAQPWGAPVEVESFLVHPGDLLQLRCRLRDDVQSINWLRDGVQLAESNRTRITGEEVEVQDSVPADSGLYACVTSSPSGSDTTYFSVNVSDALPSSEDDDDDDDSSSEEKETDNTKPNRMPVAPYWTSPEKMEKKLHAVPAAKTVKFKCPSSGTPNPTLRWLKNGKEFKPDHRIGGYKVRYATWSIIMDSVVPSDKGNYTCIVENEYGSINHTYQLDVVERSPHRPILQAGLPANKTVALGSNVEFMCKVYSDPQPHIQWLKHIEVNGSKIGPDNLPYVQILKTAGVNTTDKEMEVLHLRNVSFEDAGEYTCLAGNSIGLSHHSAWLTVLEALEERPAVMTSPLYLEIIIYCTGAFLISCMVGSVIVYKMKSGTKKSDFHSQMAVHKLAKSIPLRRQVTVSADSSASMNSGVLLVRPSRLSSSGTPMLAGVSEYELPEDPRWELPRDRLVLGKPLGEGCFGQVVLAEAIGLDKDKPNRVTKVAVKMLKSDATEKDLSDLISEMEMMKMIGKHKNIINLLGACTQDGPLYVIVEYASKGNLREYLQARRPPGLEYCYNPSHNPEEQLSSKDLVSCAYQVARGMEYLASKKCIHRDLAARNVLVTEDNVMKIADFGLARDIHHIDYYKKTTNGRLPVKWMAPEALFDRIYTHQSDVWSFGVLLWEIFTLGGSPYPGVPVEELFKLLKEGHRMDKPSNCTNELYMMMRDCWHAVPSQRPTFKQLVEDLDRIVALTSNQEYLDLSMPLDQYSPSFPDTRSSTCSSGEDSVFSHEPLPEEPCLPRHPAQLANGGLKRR
UniProt P22455, whole entry: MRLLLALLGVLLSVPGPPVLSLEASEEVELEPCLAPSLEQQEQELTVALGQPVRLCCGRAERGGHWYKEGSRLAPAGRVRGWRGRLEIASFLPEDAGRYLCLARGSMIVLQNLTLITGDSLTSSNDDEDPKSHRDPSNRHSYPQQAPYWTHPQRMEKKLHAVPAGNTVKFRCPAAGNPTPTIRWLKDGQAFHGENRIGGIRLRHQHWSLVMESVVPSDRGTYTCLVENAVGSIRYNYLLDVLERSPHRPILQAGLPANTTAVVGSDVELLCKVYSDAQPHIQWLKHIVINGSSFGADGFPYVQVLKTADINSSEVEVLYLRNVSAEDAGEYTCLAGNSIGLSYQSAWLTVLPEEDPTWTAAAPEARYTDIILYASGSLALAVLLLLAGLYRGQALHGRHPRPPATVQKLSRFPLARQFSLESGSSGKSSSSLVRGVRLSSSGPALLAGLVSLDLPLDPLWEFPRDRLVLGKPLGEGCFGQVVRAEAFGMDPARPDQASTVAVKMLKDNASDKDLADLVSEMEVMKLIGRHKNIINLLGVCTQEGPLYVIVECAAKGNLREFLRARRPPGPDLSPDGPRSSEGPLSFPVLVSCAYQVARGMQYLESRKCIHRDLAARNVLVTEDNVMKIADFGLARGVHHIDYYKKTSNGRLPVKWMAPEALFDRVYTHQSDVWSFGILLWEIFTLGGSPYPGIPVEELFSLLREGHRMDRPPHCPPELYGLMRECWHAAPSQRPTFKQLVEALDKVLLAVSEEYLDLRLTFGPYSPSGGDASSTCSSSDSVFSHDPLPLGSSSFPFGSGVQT
UniProt P22455, 22-802 limits assumed: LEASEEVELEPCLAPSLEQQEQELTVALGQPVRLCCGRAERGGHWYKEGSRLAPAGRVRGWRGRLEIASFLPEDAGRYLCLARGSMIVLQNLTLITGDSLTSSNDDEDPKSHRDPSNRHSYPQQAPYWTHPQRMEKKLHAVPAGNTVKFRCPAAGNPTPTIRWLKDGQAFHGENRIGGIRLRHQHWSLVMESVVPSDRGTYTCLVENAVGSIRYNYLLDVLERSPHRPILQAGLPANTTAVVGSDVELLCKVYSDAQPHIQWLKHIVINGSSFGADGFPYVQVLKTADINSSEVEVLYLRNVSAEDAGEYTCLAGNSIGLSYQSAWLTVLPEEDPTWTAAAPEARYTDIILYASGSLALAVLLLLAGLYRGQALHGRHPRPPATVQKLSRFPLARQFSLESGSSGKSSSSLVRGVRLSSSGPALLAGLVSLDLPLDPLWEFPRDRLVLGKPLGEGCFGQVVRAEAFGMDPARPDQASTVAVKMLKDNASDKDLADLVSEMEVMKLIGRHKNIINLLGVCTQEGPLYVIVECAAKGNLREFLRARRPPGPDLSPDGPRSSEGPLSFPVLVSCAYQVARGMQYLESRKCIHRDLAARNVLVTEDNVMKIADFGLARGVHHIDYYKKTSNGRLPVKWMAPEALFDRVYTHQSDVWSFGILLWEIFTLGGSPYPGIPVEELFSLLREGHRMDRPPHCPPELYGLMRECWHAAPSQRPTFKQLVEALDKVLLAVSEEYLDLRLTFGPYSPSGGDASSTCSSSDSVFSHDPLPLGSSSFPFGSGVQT
UniProt P35968, whole entry: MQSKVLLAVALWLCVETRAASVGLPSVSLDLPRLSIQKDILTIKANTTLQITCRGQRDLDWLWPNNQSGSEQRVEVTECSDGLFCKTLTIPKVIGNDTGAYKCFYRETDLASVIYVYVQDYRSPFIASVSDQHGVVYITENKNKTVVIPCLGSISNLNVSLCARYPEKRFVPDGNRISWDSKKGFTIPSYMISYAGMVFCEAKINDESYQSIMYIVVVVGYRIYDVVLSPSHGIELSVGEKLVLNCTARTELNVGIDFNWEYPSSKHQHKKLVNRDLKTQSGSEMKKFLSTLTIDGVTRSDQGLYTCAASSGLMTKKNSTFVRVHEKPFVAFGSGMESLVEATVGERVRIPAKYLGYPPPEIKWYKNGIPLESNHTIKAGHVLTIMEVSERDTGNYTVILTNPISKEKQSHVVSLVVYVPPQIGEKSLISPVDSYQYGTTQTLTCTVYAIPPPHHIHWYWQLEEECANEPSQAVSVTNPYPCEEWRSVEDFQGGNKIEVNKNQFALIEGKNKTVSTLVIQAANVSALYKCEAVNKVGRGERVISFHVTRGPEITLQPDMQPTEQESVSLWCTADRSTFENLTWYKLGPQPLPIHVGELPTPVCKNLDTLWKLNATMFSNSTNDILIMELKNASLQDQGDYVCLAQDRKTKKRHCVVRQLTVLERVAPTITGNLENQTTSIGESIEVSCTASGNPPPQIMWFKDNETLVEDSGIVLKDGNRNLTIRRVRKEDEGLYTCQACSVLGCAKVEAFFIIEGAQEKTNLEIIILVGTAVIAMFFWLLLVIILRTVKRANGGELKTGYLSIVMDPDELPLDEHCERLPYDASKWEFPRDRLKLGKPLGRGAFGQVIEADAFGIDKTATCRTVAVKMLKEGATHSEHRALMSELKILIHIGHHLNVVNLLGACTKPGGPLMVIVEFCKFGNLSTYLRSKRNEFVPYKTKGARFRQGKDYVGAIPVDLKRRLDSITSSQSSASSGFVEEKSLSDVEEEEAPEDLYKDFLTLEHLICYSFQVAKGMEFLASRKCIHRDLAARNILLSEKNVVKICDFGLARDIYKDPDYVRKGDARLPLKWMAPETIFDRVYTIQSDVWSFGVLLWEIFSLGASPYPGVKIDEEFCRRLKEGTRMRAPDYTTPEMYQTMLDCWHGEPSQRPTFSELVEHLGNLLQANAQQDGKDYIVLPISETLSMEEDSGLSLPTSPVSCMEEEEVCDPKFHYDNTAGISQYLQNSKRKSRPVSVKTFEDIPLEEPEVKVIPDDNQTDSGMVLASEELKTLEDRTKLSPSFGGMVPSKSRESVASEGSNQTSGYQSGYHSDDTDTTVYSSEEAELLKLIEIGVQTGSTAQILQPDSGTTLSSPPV
UniProt P35968, 20-1356 limits assumed: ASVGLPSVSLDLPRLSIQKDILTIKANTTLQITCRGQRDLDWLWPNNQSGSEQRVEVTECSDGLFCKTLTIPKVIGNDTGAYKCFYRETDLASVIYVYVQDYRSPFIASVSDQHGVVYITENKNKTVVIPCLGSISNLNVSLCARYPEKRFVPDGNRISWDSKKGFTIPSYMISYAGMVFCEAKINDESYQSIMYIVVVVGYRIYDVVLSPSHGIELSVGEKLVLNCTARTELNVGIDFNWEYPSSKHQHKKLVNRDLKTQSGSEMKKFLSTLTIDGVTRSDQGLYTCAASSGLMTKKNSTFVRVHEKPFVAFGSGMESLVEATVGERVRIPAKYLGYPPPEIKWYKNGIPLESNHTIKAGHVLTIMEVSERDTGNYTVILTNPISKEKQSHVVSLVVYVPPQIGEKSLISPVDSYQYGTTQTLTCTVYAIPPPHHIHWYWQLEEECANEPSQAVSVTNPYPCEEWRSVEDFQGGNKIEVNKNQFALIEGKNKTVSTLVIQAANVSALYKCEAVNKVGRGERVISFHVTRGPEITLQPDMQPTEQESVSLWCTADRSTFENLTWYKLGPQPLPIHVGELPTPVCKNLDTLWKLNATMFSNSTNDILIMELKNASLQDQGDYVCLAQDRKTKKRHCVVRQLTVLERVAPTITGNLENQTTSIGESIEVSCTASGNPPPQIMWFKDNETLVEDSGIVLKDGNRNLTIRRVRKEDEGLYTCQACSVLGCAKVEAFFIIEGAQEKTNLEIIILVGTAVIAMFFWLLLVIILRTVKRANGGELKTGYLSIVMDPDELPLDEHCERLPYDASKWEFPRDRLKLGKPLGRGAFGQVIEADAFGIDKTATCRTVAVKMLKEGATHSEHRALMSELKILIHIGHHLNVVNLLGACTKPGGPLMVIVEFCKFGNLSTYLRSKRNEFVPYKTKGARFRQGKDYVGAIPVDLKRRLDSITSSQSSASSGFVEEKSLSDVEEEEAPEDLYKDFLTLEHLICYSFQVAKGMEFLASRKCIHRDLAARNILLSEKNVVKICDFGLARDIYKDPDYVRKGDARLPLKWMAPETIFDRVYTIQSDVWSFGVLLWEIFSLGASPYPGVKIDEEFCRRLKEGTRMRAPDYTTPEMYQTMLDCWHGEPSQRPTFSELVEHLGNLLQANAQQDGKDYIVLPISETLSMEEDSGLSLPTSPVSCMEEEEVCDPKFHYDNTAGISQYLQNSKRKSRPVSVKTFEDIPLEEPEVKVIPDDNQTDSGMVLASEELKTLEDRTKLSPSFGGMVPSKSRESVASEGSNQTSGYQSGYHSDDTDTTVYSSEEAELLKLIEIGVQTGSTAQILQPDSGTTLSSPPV

Assay [1] has as its target Ba/F3-Flt3-transfected cells (Homo sapiens, UniProt P36888, cells depend on it, form not given). Nature of the assay: Ba/F3-Flt3 (minus IL3) cellular proliferation assay, Alamar Blue. The class given is cell-based. For orientation: Resazurin is reduced to fluorescent resorufin, in cell work by metabolically active cells.
For assay [2], the target named is FGFR1 (h) (Homo sapiens, UniProt P11362). Put plainly: FGFR1 (enzymatic assay), TR-FRET. The settings on record: average values if tested multiple times. The class given is biochemical. (In TR-FRET formats the signal depends on donor and acceptor labels being close together.)
Assay [3] has as its target Ba/F3-FGFR1-transfected cells (Homo sapiens, UniProt P11362). Nature of the assay: Ba/F3-FGFR1 (minus IL3) cellular proliferation assay, Alamar Blue. Type of assay: cell-based.
Assay [4] has as its target FGFR4 (h) (Homo sapiens, UniProt P22455). Put plainly: FGFR4 (enzymatic assay), TR-FRET. The class given is biochemical. As to conditions: average values if tested multiple times.
Assay [5] addresses FGFR3 (h) (Homo sapiens, UniProt P22607). Nature of the assay: FGFR3 (enzymatic assay), TR-FRET. As to conditions: average values if tested multiple times. The class given is biochemical.
Assay [6] relates to Ba/F3-FGFR3-transfected cells. Nature of the assay: Ba/F3-FGFR3 (plus IL3) cellular proliferation assay, counterscreen with 10 ng/ml murine IL3. As to conditions: plus IL3 (10 ng/ml murine IL3, counterscreen). Type of assay: cell-based. Here is the method:
Ba/F3-FGFR3 (Minus IL3 or Plus IL3) (Cellular Proliferation Assay)
(§1) In a 384 well plate, 100 nl of compound dilution in DMSO was sprayed before adding 50 μl cell culture medium (phenol red free RPMI-1640, 10% FBS, 2 mM L-Glutamine and 50 μg/ml Gentamycin) containing 20000 cells per well of Ba/F3-FGFR3-transfected cells. Cells were put in an incubator at 37° C. and 5% CO2. After 24 hours, 10 μl of Alamar Blue solution (0.5 mM K3Fe(CN)6, 0.5 mM K4Fe(CN)6, 0.15 mM Resazurin and 100 mM Phosphate Buffer) was added to the wells, incubated for 4 hours at 37° C. and 5% CO2 before RFU's (Relative Fluorescence Units) (ex. 540 nm., em. 590 nm.) were measured in a fluororescence plate reader.
(§2) As a counterscreen the same experiment was performed in the presence of 10 ng/ml murine IL3.

Assay [7] addresses Ba/F3-KDR-transfected cells (Homo sapiens, UniProt P35968). Put plainly: Ba/F3-KDR (minus IL3) cellular proliferation assay, Alamar Blue. Type of assay: cell-based. How it is done:
(§3) Ba/F3-KDR (Minus IL3 or Plus IL3) (Cellular Proliferation Assay)
as §1, with “n1” for “nl”, “Ba/F3-KDR-transfected” for “Ba/F3-FGFR3-transfected”, “reader. […]” for “reader.”

In assay [8] the target is Ba/F3-FGFR4-transfected cells (Homo sapiens, UniProt P22455). Nature of the assay: Ba/F3-FGFR4 cellular proliferation assay, Alamar Blue. The class given is cell-based.
Assay [9] concerns the target Ba/F3-FGFR3-transfected cells (Homo sapiens, UniProt P22607). Nature of the assay: Ba/F3-FGFR3 (minus IL3) cellular proliferation assay, Alamar Blue. Type of assay: cell-based.
Assay [10] relates to Ba/F3-FGFR1-transfected cells. Nature of the assay: Ba/F3-FGFR1 (plus IL3) cellular proliferation assay, counterscreen with 10 ng/ml murine IL3. Type of assay: cell-based. The settings on record: plus IL3 (10 ng/ml murine IL3, counterscreen). Here is the method: Ba/F3-FGFR1 (Minus IL3 or Plus IL3) (Cellular Proliferation Assay)
as §1, with “Ba/F3-FGFR1-transfected” for “Ba/F3-FGFR3-transfected”
as §2
In general terms: The purpose of a counterscreen is to sort out artefacts and off-target activity.

For assay [11], the system named is Ba/F3-Flt3-transfected cells. Nature of the assay: Ba/F3-Flt3 (plus IL3) cellular proliferation assay, counterscreen with 10 ng/ml murine IL3. Type of assay: cell-based. The settings on record: plus IL3 (10 ng/ml murine IL3, counterscreen). How it is done:
Ba/F3-Flt3 (Minus IL3 or Plus IL3) (Cellular Proliferation Assay)
as §1, with “Ba/F3-Flt3-transfected” for “Ba/F3-FGFR3-transfected”
as §2

Assay [12] deals with KDR (h) (Homo sapiens, UniProt P35968). Put plainly: KDR (VEGFR2) (enzymatic assay), TR-FRET. The settings on record: average values if tested multiple times.
The target in assay [13] is FGFR2 (h) (Homo sapiens, UniProt P21802). Nature of the assay: FGFR2 (enzymatic assay), TR-FRET. As to conditions: average values if tested multiple times. Type of assay: biochemical.
In assay [14] the test system is Ba/F3-KDR-transfected cells. Put plainly: Ba/F3-KDR (plus IL3) cellular proliferation assay, counterscreen with 10 ng/ml murine IL3. Type of assay: cell-based. As to conditions: plus IL3 (10 ng/ml murine IL3, counterscreen). How it is done:
as §3
as §1, with “n1” for “nl”, “Ba/F3-KDR-transfected” for “Ba/F3-FGFR3-transfected”
as §2

`COc1cc(N=c2ccc3ncc(-c4cnn(C)c4)nc3n2CC(O)C(F)(F)F)c(F)c(OC)c1` (stereo not shown): the “BAF3-FLT3 (MIN IL3) pIC50” value in assay [1] was less than 5. In addition, the “FGFR 1 pIC50” value in assay [2] was determined as 9.17. Besides, in [3], the “BAF3-FGFR1 (MIN IL3) pIC50” value was 7.71. Further, in assay [4], the “FGFR 4 pIC50” value worked out at 8.82. Also, the “FGFR 3 pIC50” value in assay [5] was 9.04. Moreover, the “BAF3-FGFR3 (PLUS IL3) pIC50” value in assay [6] is reported as less than 5. Also, in assay [7], the “BAF3-KDR (MIN IL3) pIC50” value is 5.77. For the same molecule, the “BAF3-FGFR4 pIC50” value in [8] turned out to be 7.18. Besides, the “BAF3-FGFR3 (MIN IL3) pIC50” value in assay [9] is reported as approximately 7.57. Besides, the “BAF3-FGFR1 (PLUS IL3) pIC50” value in assay [10] was less than 5. Also, in [11], the “BAF3_FLT3 (PLUS IL3) pIC50” value was less than 5. The “VEGFR 2 (KDR) pIC50” value in [12] was 7.77. The “FGFR 2 pIC50” value in [13] is on record as 8.68. For the same molecule, the “BAF3-KDR (PLUS IL3) pIC50” value in assay [14] was less than 5.

In the case of `COc1cc(OC)c(F)c(N(CC(O)C(F)(F)F)c2ccc3ncc(-c4cnn(C)c4)nc3n2)c1` (stereo not shown), the “BAF3-FLT3 (MIN IL3) pIC50” value in assay [1] is less than 5. For the same molecule, the “FGFR 1 pIC50” value in assay [2] is listed as 8.82. For the same molecule, the “BAF3-FGFR1 (MIN IL3) pIC50” value in assay [3] turned out to be 7.88. For the same molecule, the “FGFR 4 pIC50” value in assay [4] worked out at 8.58. The “FGFR 3 pIC50” value in [5] is 8.66. Moreover, the “BAF3-FGFR3 (PLUS IL3) pIC50” value in [6] is less than 5. Moreover, the “BAF3-KDR (MIN IL3) pIC50” value in [7] stood at 5.69. Moreover, in assay [8], the “BAF3-FGFR4 pIC50” value is listed as 7.35. Moreover, the “BAF3-FGFR3 (MIN IL3) pIC50” value in [9] stood at 7.80. For the same molecule, the “BAF3-FGFR1 (PLUS IL3) pIC50” value in [10] is less than 5. The “BAF3_FLT3 (PLUS IL3) pIC50” value in assay [11] is less than 5. Further, the “VEGFR 2 (KDR) pIC50” value in assay [12] stood at 7.19. Besides, the “FGFR 2 pIC50” value in assay [13] was 8.33. Besides, the “BAF3-KDR (PLUS IL3) pIC50” value in [14] was less than 5.
